Laboratory results published in patent US20160319265.

B1: unnamed (protein)
chain: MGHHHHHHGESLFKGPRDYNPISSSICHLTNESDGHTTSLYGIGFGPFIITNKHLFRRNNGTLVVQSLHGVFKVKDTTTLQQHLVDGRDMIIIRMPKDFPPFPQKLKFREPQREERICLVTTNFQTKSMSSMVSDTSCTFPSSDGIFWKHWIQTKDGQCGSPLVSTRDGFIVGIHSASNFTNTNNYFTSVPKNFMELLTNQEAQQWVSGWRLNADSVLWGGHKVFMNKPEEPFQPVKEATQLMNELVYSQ
B2: unnamed (protein)
chain: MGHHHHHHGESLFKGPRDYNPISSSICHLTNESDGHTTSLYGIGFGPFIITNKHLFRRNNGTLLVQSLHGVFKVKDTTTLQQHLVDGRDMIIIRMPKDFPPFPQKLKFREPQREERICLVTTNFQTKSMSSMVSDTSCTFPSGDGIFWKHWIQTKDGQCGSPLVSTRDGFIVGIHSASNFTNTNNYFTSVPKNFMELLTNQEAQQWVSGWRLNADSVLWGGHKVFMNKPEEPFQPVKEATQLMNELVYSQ
B3: unnamed (protein)
chain: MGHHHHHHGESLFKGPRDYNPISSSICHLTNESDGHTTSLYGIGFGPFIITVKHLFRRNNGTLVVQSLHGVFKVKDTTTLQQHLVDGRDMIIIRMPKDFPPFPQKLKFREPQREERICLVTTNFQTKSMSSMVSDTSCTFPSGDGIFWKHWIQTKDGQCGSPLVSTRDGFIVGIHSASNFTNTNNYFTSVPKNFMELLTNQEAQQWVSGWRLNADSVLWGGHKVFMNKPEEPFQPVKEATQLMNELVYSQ
B4: TEV protease variant 5 (S219N, L56V, N68D, S135G; N-terminal poly-histidine tag) (protein)
chain: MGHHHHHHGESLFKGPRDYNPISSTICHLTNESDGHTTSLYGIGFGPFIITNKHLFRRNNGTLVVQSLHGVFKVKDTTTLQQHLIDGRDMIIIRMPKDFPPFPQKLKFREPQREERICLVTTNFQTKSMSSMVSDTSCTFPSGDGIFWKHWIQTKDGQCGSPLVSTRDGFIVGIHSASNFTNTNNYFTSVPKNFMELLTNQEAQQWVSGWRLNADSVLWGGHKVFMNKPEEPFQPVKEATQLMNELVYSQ
B5: TEV protease variant 3 (S219N, T17S, N68D, I77V; N-terminal poly-histidine tag) (protein)
chain: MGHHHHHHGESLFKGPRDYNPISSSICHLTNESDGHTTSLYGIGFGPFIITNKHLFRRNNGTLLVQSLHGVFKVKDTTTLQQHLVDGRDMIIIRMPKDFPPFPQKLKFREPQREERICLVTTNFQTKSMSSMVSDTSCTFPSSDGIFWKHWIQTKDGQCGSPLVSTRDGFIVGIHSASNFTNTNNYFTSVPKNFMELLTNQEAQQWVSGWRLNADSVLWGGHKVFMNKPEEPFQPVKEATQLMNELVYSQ

Molecular target: TEV substrate

**Q.** Which TEV Substrate Cleavage (%), 30 minute does the source give for B1 here?
**A.** 90.8%

**Q.** What about the TEV Substrate Cleavage (%), 60 minute of the same protein?
**A.** 96.8%

**Q.** And the TEV Substrate Cleavage (%), 120 minute?
**A.** 97.2%

**Q.** What does the source list for B2?
**A.** TEV Substrate Cleavage (%), 30 minute: 96.6%; TEV Substrate Cleavage (%), 60 minute: 97.8%; TEV Substrate Cleavage (%), 120 minute: 97.7%

**Q.** Which TEV Substrate Cleavage (%), 30 minute does the source give for B3 here?
**A.** 74.2%

**Q.** What about the TEV Substrate Cleavage (%), 60 minute of the same protein?
**A.** 93.3%

**Q.** And the TEV Substrate Cleavage (%), 120 minute?
**A.** 96.1%

**Q.** For B4, which TEV Substrate Cleavage (%), 30 minute is on record?
**A.** 95.6%

**Q.** And the TEV Substrate Cleavage (%), 60 minute?
**A.** 97.8%

**Q.** What about the TEV Substrate Cleavage (%), 120 minute of the same protein?
**A.** 95.6%

**Q.** With B5 as the protein, how does the TEV Substrate Cleavage (%), 30 minute read?
**A.** 96.5%

**Q.** And the TEV Substrate Cleavage (%), 60 minute?
**A.** 97.7%

**Q.** And the TEV Substrate Cleavage (%), 120 minute?
**A.** 98.1%
